The numbers were not newly measured in publication PMC9094701, “Multiple-Allele MHC Class II Epitope Engineering by a Molecular Dynamics-Based Evolution Protocol” (Frontiers in Immunology, 2022), which cites them from elsewhere.

One series concerns the target DRB1*01:01 (Homo sapiens, UniProt P01903+P01911, A100R/D57E/F55L/F60I/F76Y/I96L/L162R/M171V/P40L/Q125E/R42F/V115G/Y59C). The note with it: DRB1*01:01, from IEDB; cited from earlier work.
The target of another series is DRB1*04:01 (Homo sapiens, UniProt P01903+P01911, A100K/A169T/F76Y/I96L/K127E/L162R/M171V/N62H/P40V/Q125Y/R42H/S133A/S149N/S66Y/V115G/V209L/W38E). The note with it: DRB1*04:01, from IEDB; cited from earlier work. The source says:
(§1) A mySQL version of the database was downloaded and accessed using 15-mer peptides with reported IC 50 values as queries.

Another series deals with DRB1*15:01 (Homo sapiens, UniProt P01903+P01911). Conditions: DRB1*15:01, from IEDB; cited from earlier work.
Excerpt: as §1

Broadly, the IC50 is the midpoint of a concentration-inhibition curve. DYDVVYLKPLAGMYK: the IC50 on DRB1*01:01 was 0.001 µM; at DRB1*04:01, 1.64 µM; in the series with DRB1*15:01 it was 0.793 µM.
